# According to patent publication US9884844B2 (priority 2012, dated 2018):
# Target: μ-opioid receptor (Homo sapiens, UniProt P35372)
# Assay: cAMP assay on CHO cells expressing μ-opioid receptor (MOR assay)
# Conditions: read-out: MOR EC50
row,SMILES,EC50 [nM]
1,CNC(=O)CC1(O)C(=O)N(C2CCN(C3Cc4cccc5c4C3N(C)CC5)CC2)c2ccccc21 (centres unmarked),> 5000
2,Cc1cccc2cccc(CN3CCC(N4C(=O)C(O)(CC5CNC(=O)O5)c5ccccc54)CC3)c12 (centres unmarked),1000 to 5000
3,O=C1NCC2(O1)C(=O)N(C1CCN(C3Cc4cccc5cccc3c45)CC1)c1ccccc12 (centres unmarked),100 to 1000
4,"NC[C@@H](O)CC1(O)C(=O)N(C2CCN(C3Cc4cccc5cccc3c45)CC2)c2ccccc21 (single isomer, unassigned)",100 to 1000
5,CNC(=O)C[C@@]1(C)C(=O)N(C2CCN([C@@H]3c4ccccc4CC[C@H]3O)CC2)c2ccccc21,> 5000
6,O=C1N(C2CCN(C3Cc4cccc5cccc3c45)CC2)c2ccccc2C1(O)Cc1ncco1 (centres unmarked),> 5000
7,CNC(=O)CC1C(=O)N(C2CCN(C3c4cccc5cccc(c45)C3O)CC2)c2ccccc21 (centres unmarked),100 to 1000
8,C[C@H](O)CC1(O)C(=O)N(C2CCN(C3Cc4cccc5cccc3c45)CC2)c2ccccc21 (some centres unmarked),> 5000
9,CN(C)C(=O)CC1C(=O)N(C2CCN(C3Cc4cccc5cccc3c45)CC2)c2ccccc21 (centres unmarked),100 to 1000
10,Cc1cccc2cccc(CN3CCC(N4C(=O)C(C)(CC5CNC(=O)O5)c5ccccc54)CC3)c12 (centres unmarked),100 to 1000
11,COC(=O)NCC1(O)C(=O)N(C2CCN(C3Cc4cccc5cccc3c45)CC2)c2ccccc21 (centres unmarked),> 5000
12,COC(=O)NCC1(O)C(=O)N(C2CCN([C@@H]3c4cccc5cccc(c45)[C@H]3O)CC2)c2ccccc21 (some centres unmarked),> 5000
13,CNC(=O)CC1(OC)C(=O)N(C2CCN(CCC(Oc3cc(OC)ccc3Cl)C(C)C)CC2)c2ccccc21 (centres unmarked),100 to 1000
14,CNC(=O)CC1(O)C(=O)N(C2CCN(CCC(Oc3cc(OC)ccc3Cl)C(C)C)CC2)c2ccccc21 (centres unmarked),100 to 1000
15,CNC(=O)CC1(OC)C(=O)N(C2CCN([C@H]3c4cccc5cccc(c45)[C@@H]3O)CC2)c2ccccc21 (some centres unmarked),100 to 1000
16,O=C1NCC(CC2C(=O)N(C3CCN(C4Cc5cccc6cccc4c56)CC3)c3ccccc32)O1 (centres unmarked),100 to 1000
17,CNC(=O)OC1C(=O)N(C2CCN(C3Cc4cccc5cccc3c45)CC2)c2ccccc21 (centres unmarked),100 to 1000
18,COCCC1(O)C(=O)N(C2CCN([C@@H]3Cc4cccc5cccc3c45)CC2)c2ccccc21 (some centres unmarked),> 5000
19,CNC(=O)CC1C(=O)N(C2CCN(CCC(Oc3cc(C)ccc3Cl)C(C)C)CC2)c2ccccc21 (centres unmarked),100 to 1000
20,CNC(=O)CC1(O)C(=O)N(C2CCN([C@H]3c4cccc5cccc(c45)[C@@H]3O)CC2)c2ccccc21 (some centres unmarked),100 to 1000
21,NCC1(O)C(=O)N(C2CCN(C3Cc4cccc5cccc3c45)CC2)c2ccccc21 (centres unmarked),> 5000

row,SMILES,EC50 [nM]
1,CC1(CC(O)CN)C(=O)N(C2CCN(C3Cc4cccc5cccc3c45)CC2)c2ccccc21 (centres unmarked),100 to 1000
2,CNC(=O)C[C@@]1(C)C(=O)N(C2CCN([C@H]3c4ccccc4CC[C@@H]3O)CC2)c2ccccc21,> 5000
3,CNC(=O)C[C@]1(C)C(=O)N(C2CCN([C@@H]3c4ccccc4CC[C@H]3O)CC2)c2ccccc21,> 5000
4,CN(C)C(=O)CC1(C)C(=O)N(C2CCN(C3Cc4cccc5cccc3c45)CC2)c2ccccc21 (centres unmarked),100 to 1000
5,CC(=O)OC1C(=O)N(C2CCN(C3Cc4cccc5cccc3c45)CC2)c2ccccc21 (centres unmarked),100 to 1000
6,C[C@@]1(C[C@H](O)CN)C(=O)N(C2CCN([C@@H]3Cc4cccc5cccc3c45)CC2)c2ccccc21,> 5000
7,CNC(=O)CC1(C)C(=O)N(C2CCN([C@H]3c4cccc5cccc(c45)[C@]3(C)O)CC2)c2ccccc21 (some centres unmarked),100 to 1000
8,"NC[C@H](O)CC1(O)C(=O)N(C2CCN(C3Cc4cccc5cccc3c45)CC2)c2ccccc21 (single isomer, unassigned)",100 to 1000
9,CNC(=O)CC1(OC)C(=O)N(C2CCN(CCC(Oc3cccc(OC)c3)C(C)C)CC2)c2ccccc21 (centres unmarked),> 5000
10,COc1ccc(Cl)c(OC(CCN2CCC(N3C(=O)C(O)(CC(=O)N(C)C)c4ccccc43)CC2)C(C)C)c1 (centres unmarked),> 5000
11,CNC(=O)CC1(O)C(=O)N(C2CCN(C3c4cccc5cccc(c45)C3(C)C)CC2)c2ccccc21 (centres unmarked),100 to 1000
12,O=C1NCCC12C(=O)N(C1CCN(C3Cc4cccc5cccc3c45)CC1)c1ccccc12 (centres unmarked),100 to 1000
13,CN1CC2(CC1=O)C(=O)N(C1CCN([C@H]3c4cccc5cccc(c45)[C@@H]3O)CC1)c1ccccc12 (some centres unmarked),100 to 1000
14,COCCC1(O)C(=O)N(C2CCN([C@H]3c4cccc5cccc(c45)C3O)CC2)c2ccccc21 (some centres unmarked),> 5000
15,COc1ccc(Cl)c(OC(CCN2CCC(N3C(=O)C(CC(=O)N(C)C)c4ccccc43)CC2)C(C)C)c1 (centres unmarked),100 to 1000
16,"CNC(=O)C[C@@]1(F)C(=O)N(C2CCN(C3c4cccc5cccc(c45)[C@H]3O)CC2)c2ccccc21 (single isomer, unassigned)",> 5000
17,CC1(Cc2ncco2)C(=O)N(C2CCN([C@@H]3Cc4cccc5cccc3c45)CC2)c2ccccc21 (some centres unmarked),> 5000
18,CNC(=O)C[C@]1(C)C(=O)N(C2CCN([C@H]3CCCc4ccccc43)CC2)c2ccccc21,100 to 1000
19,CNCC(O)CC1(C)C(=O)N(C2CCN(C3Cc4cccc5cccc3c45)CC2)c2ccccc21 (centres unmarked),> 5000
20,C[C@]1(C[C@H](O)CN)C(=O)N(C2CCN([C@@H]3Cc4cccc5cccc3c45)CC2)c2ccccc21,> 5000
21,CNC(=O)CC1(C)C(=O)N(C2CCN(CCC(Oc3cccc(OC)c3)C(C)C)CC2)c2ccccc21 (centres unmarked),100 to 1000

row,SMILES,EC50 [nM]
1,CNC(=O)CC1(O)C(=O)N(C2CCN([C@H]3c4cccc5cccc(c45)[C@]3(C)O)CC2)c2ccccc21 (some centres unmarked),1000 to 5000
2,"CNC(=O)C[C@@]1(F)C(=O)N(C2CCN(C3c4cccc5cccc(c45)[C@@H]3O)CC2)c2ccccc21 (single isomer, unassigned)",> 5000
3,CNC(=O)CC1(O)C(=O)N(C2CCN([C@H]3c4ccccc4CC[C@@H]3O)CC2)c2ccccc21 (some centres unmarked),100 to 1000
4,CC1(CC(O)CO)C(=O)N(C2CCN([C@@H]3Cc4cccc5cccc3c45)CC2)c2ccccc21 (some centres unmarked),> 5000
5,CNC(=O)C[C@]1(C)C(=O)N(C2CCN([C@H]3c4ccccc4CC[C@@H]3O)CC2)c2ccccc21,> 5000
6,CC1(Cc2ncn[nH]2)C(=O)N(C2CCN(C3c4cccc5cccc(c45)C3O)CC2)c2ccccc21 (centres unmarked),> 5000
7,"CNC(=O)C[C@]1(F)C(=O)N(C2CCN(C3c4cccc5cccc(c45)[C@H]3O)CC2)c2ccccc21 (single isomer, unassigned)",> 5000
8,CC1(Cc2ncco2)C(=O)N(C2CCN(C3c4cccc5cccc(c45)C3O)CC2)c2ccccc21 (centres unmarked),> 5000
9,Cn1cnc(CC2(C)C(=O)N(C3CCN(C4c5cccc6cccc(c56)C4O)CC3)c3ccccc32)n1 (centres unmarked),> 5000
10,NC(=O)CC1(O)C(=O)N(C2CCN(C3Cc4cccc5cccc3c45)CC2)c2ccccc21 (centres unmarked),100 to 1000
11,CN(C)C(=O)CC1(C)C(=O)N(C2CCN([C@H]3c4cccc5cccc(c45)[C@@H]3O)CC2)c2ccccc21 (some centres unmarked),100 to 1000
12,O=C(/C=C1/C(=O)N(C2CCN(C3Cc4cccc5cccc3c45)CC2)c2ccccc21)N1CCCCC1 (centres unmarked),> 5000
13,CNC(=O)C[C@]1(O)C(=O)N(C2CCN([C@@H]3c4cccc5cccc(c45)[C@H]3O)CC2)c2ccccc21,100 to 1000
14,CNC(=O)C[C@]1(O)C(=O)N(C2CCN([C@H]3c4cccc5cccc(c45)[C@@H]3O)CC2)c2ccccc21,100 to 1000
15,CNC(=O)CC1C(=O)N(C2CCN(Cc3cccc4cccc(C)c34)CC2)c2ccccc21 (centres unmarked),1000 to 5000
16,O=C1N(C2CCN(C3Cc4cccc5cccc3c45)CC2)c2ccccc2C1(O)CCO (centres unmarked),> 5000
17,CCOC(=O)CC1C(=O)N(C2CCN([C@@H]3c4cccc5cccc(c45)[C@H]3C)CC2)c2ccccc21 (some centres unmarked),100 to 1000
18,CCOC(=O)CC1C(=O)N(C2CCN([C@H]3c4cccc5cccc(c45)[C@H]3C)CC2)c2ccccc21 (some centres unmarked),100 to 1000
19,CN(C)C(=O)CC1(F)C(=O)N(C2CCN(C3Cc4cccc5cccc3c45)CC2)c2ccccc21 (centres unmarked),100 to 1000
20,CNC(=O)CC1C(=O)N(C2CCN(C3c4cccc5cccc(c45)C3C)CC2)c2ccccc21 (centres unmarked),100 to 1000
21,O=C1N(C2CCN(C3Cc4cccc5cccc3c45)CC2)c2ccccc2C1(F)CC(O)CO (centres unmarked),> 5000

row,SMILES,EC50 [nM]
1,O=C1C(CC(O)CN(Cc2ccccc2)Cc2ccccc2)c2ccccc2N1C1CCN(C2Cc3cccc4cccc2c34)CC1 (centres unmarked),> 5000
2,CNC(=O)CC1(O)C(=O)N(C2CCN(Cc3cccc4cccc(C)c34)CC2)c2ccccc21 (centres unmarked),1000 to 5000
3,CNC(=O)CC1C(=O)N(C2CCN(C3c4cccc5cccc(c45)[C@@H]3C)CC2)c2ccccc21 (some centres unmarked),100 to 1000
4,"CNC(=O)C[C@]1(F)C(=O)N(C2CCN(C3c4cccc5cccc(c45)[C@@H]3O)CC2)c2ccccc21 (single isomer, unassigned)",> 5000
5,CN(C)C(=O)CC1(O)C(=O)N(C2CCN(C3Cc4cccc5cccc3c45)CC2)c2ccccc21 (centres unmarked),1000 to 5000
6,CNC(=O)CC1(O)C(=O)N(C2CCN(C3Cc4cccc5ccnc3c45)CC2)c2ccccc21 (centres unmarked),> 5000
7,CNC(=O)C[C@@]1(O)C(=O)N(C2CCN([C@H]3c4cccc5cccc(c45)[C@@H]3O)CC2)c2ccccc21,100 to 1000
8,CN1CC2(CC1=O)C(=O)N(C1CCN(C3Cc4cccc5cccc3c45)CC1)c1ccccc12 (centres unmarked),100 to 1000
9,Cc1cccc2cccc(CN3CCC(N4C(=O)C(O)(CC(O)CN)c5ccccc54)CC3)c12 (centres unmarked),> 5000
10,C[C@@H](O)CC1(O)C(=O)N(C2CCN(C3Cc4cccc5cccc3c45)CC2)c2ccccc21 (some centres unmarked),> 5000
11,CN1CC2(C(=O)N(C3CCN(C4Cc5cccc6cccc4c56)CC3)c3ccccc32)N(C)C1=O (centres unmarked),100 to 1000
12,CN1CC2(OC1=O)C(=O)N(C1CCN(C3Cc4cccc5cccc3c45)CC1)c1ccccc12 (centres unmarked),100 to 1000
13,CN(C)C(=O)CC1(O)C(=O)N(C2CCN([C@H]3c4cccc5cccc(c45)[C@@H]3O)CC2)c2ccccc21 (some centres unmarked),100 to 1000
14,CN(C)CC(O)CC1(C)C(=O)N(C2CCN(C3Cc4cccc5cccc3c45)CC2)c2ccccc21 (centres unmarked),> 5000
15,CNC(=O)C[C@@]1(O)C(=O)N(C2CCN([C@@H]3c4cccc5cccc(c45)[C@H]3O)CC2)c2ccccc21,1000 to 5000
16,Cn1ncnc1CC1(C)C(=O)N(C2CCN(C3c4cccc5cccc(c45)C3O)CC2)c2ccccc21 (centres unmarked),> 5000
17,CNC(=O)CC1(F)C(=O)N(C2CCN(C3(C)Cc4cccc5cccc3c45)CC2)c2ccccc21 (centres unmarked),1000 to 5000
18,NCC(O)CC1(O)C(=O)N(C2CCN(C3Cc4cccc5cccc3c45)CC2)c2ccccc21 (centres unmarked),100 to 1000
19,CNC(=O)CC1(F)C(=O)N(C2CCN([C@H]3c4cccc5cccc(c45)[C@@H]3O)CC2)c2ccccc21 (some centres unmarked),> 5000
20,Cc1cccc2cccc(CN3CCC(N4C(=O)C(CC5CNC(=O)O5)c5ccccc54)CC3)c12 (centres unmarked),100 to 1000
